Patent US20130079364A1, “Peripheral Opioid Agonists and Peripheral Opioid Antagonists” (SIGNATURE THERAPEUTICS, INC., priority 2010, published 2013)

Key:
[1] = Pharmacokinetics following PO administration to rats (plasma, HPLC/MS)
Protocol: (§1) At specified time points, blood samples were drawn, harvested for plasma via centrifugation at 5,400 rpm at 4° C. for 5 min, and 100 microliters (μl) plasma transferred from each sample into a fresh tube containing 2 μl of 50% formic acid. The tubes were vortexed for 5-10 seconds, immediately placed in dry ice and then stored in a −80° C. freezer until analysis by HPLC/MS.
as §1, with “μl” for “microliters (μl)”
as §1, with “μl” for “microliters (μl)”
as §1, with “μl” for “microliters (μl)”

[2] = rat, in vivo, iv, 10 mg/kg
[3] = Pharmacokinetics following IV administration to rats (plasma, HPLC/MS)

N-methyl-N-(naloxone-6-enol-carbonyl-methyl amino)ethylamine-arginine-malonic acid [Compound AN-3]
Compound AN-3 Cmax ± sd ([1]; rat plasma, PO 20 mg/kg (26 μmol/kg) Compound AN-3): 45.5 ± 13 ng/mL
Compound AN-3 Tmax ± sd ([1]; rat plasma, PO 20 mg/kg Compound AN-3): 45 ± 17.4 min
plasma concentration of naltrexone released as % of plasma concentration of Compound AN-3 ([1]; rats, PO Compound AN-3): about 0.13%
Compound conc. in CSF [2]: 74.4 ng/mL
Compound conc. in plasma [2]: 57,900 ng/mL
Plasma/CSF partitioning coefficient [2]: 778
Compound AN-3 Cmax ± sd ([3]; rat plasma, IV 10 mg/kg (13 μmol/kg) Compound AN-3): 57,900 ± 4,100 ng/mL
plasma concentration of naltrexone as % of plasma concentration of Compound AN-3 ([3]; rats, IV Compound AN-3): 0.015%
